{
  "source": "patent US20140065632A1",
  "about": "“MARKER GENE FOR DETECTION OF TUMOR PROMOTER, AND METHOD FOR DETECTION OF TUMOR PROMOTER” (priority 2007, published 2014)",
  "key": {"Orm1": {"system": "Orm1", "assay": "Quantitative RT-PCR of Orm1 gene expression in the BALB/c 3T3 cell transformation assay", "format": "cell-based, mouse", "conditions": "Example 3; MCA-initiated BALB/c 3T3 cells, RNA 48 hours after addition of test substance, normalized by β-actin"}, "Bhas cells": {"system": "Bhas cells", "assay": "Transformation assay using Bhas cells (focus formation)", "conditions": "Example 4; foci on day 21"}, "BALB/c 3T3 cells": {"system": "BALB/c 3T3 cells", "assay": "Transformation assay using BALB/c 3T3 cells (focus formation)"}},
  "data": [
    {"smiles": "CN(N=O)C(=N)N[N+](=O)[O-]", "values": [
      {"measurement": "Expression level of Orm1 (rates relative to the negative control)", "setting": "Orm1", "result": 1.3},
      {"measurement": "ability to form foci in the Bhas cellular transformation assay", "setting": "Bhas cells", "result": "unable to form foci"},
      {"measurement": "ability to form foci in the BALB/c 3T3 cell transformation assay", "setting": "BALB/c 3T3 cells; Example 2", "result": "unable to form foci"},
      {"measurement": "Focus formation in the BALB/c 3T3 cell transformation assay", "setting": "BALB/c 3T3 cells; Example 2/3, foci counted on day 25, significance P<0.05 Wilcoxon vs negative control", "result": "−"}
    ]}
  ]
}
